Assay results reported in ChEMBL document CHEMBL1144372, “Novel 2-amino-4-oxo-5-arylthio-substituted-pyrrolo[2,3-d]pyrimidines as nonclassical antifolate inhibitors of thymidylate synthase” (Bioorg Med Chem Lett, 2005).

Amino acid sequences for entries named in this document (tags omitted).
UniProt C3SWJ7, whole entry: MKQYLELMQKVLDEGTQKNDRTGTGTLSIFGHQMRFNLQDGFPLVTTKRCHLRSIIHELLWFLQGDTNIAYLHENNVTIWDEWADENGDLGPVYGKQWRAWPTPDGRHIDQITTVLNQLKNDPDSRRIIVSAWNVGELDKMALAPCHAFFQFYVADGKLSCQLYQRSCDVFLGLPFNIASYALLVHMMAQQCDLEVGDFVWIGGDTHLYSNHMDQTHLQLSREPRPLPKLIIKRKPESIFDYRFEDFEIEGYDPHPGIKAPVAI

How the values were obtained:
[1] = molecular target: T1, Dihydrofolate reductase (Homo sapiens, UniProt P00374); assay: Inhibitory concentration against human dihydrofolate reductase
T1 sequence (P00374 whole entry): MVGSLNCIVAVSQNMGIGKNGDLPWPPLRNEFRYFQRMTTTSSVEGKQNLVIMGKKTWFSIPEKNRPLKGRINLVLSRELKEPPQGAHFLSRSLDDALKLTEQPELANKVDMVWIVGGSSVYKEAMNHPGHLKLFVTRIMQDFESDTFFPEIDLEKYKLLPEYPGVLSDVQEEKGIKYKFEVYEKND

[2] = molecular target: Thymidylate synthase (Escherichia coli, UniProt C3SWJ7); assay: Inhibitory concentration against Escherichia coli thymidylate synthase

SMILES	IC50 [1]	IC50 [2]
Nc1nc2[nH]cc(CCc3ccc(C(=O)N[C@@H](CCC(=O)O)C(=O)O)cc3)c2c(=O)[nH]1 [PEMETREXED]	66 µM	760 µM
Cc1nc2ccc(CN(C)c3ccc(C(=O)N[C@@H](CCC(=O)O)C(=O)O)s3)cc2c(=O)[nH]1 [RALTITREXED]		57 µM
